The values that follow come from patent US6630464B1, “Cyclin dependent kinase (CDK)4 inhibitors and their use for treating cancer” (The United States of America as represented by the …, priority 1997, dated 2003).

The subject of this experiment is 60 human cancer cell lines of the NCI drug screen panel. Briefly: In vitro antitumor activity, sulforhodamine-B assay, NCI drug screen panel. The format is cell-based. Particulars: 48 h, 2 day growth assay of the NCI drug screen. Here is the method:
Cell lines, compounds, and in vitro sensitivity testing. Exponentially growing cultures of the nine non-small cell lung, eight melanoma, eight renal, eight breast, seven colon, six brain, six leukemia, six ovarian, and two prostate cancer cell lines from the NCI drug screen panel were used. Compounds were obtained from the Drug Synthesis and Chemistry Branch, National Cancer Institute. In vitro antitum or activity of compounds was determined using a sulforhodamine-B assay in the 60 human cancer cell lines of the NCI drug screen panel.
Compounds of the present invention have been subjected to the drug screening procedure employed by the National Cancer Institute for the screening of drugs having possible anticancer utility. The screening procedure uses a diverse, disease-oriented panel consisting of different human tumor cell lines organized into disease-specific subpanels. The compounds of the present invention were tested over a range of concentrations for cytotoxic or growth-inhibitory effects against cell lines comprising the panel. The subpanels represented diverse histologies (leukemias, melanomas, and tumors of the lung, colon, kidney, breast, ovary, and brain). […]
To produce data for the mean-graph format, a compound concentration that produced a target level response was calculated for each cell line. Three different response parameters were evaluated. […]
Background: The SRB assay estimates cell density from bound dye.

Regarding `Nc1ccc2c(=S)c3ccccc3[nH]c2c1` [Compound 3, 3-Amino-10H-acridine-9-thione], halving of growth (GI50) required 30 µM.

In general, GI50 refers to the concentration at which growth is held to half of that of the control. A higher GI50 goes with lower sensitivity of the cells.
